Test results published in article PMC7997579, “Synthetic Lethality in Pancreatic Cancer: Discovery of a New RAD51-BRCA2 Small Molecule Disruptor That Inhibits Homologous Recombination and Synergizes with Olaparib” (Journal of Medicinal Chemistry, 2020).

The chains behind the UniProt entries cited, without tags or fusion partners.
UniProt Q06609, whole entry: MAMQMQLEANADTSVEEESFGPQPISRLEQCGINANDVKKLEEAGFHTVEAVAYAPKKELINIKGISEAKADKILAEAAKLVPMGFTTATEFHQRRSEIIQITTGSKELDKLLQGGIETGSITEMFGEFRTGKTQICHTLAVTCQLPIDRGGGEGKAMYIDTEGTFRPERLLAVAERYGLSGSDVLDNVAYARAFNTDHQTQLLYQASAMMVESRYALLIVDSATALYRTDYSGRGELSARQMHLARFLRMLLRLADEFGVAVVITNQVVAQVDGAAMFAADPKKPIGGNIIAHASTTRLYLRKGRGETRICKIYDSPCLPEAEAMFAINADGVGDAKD

Target: BRC4–RAD51 interaction (Homo sapiens, UniProt Q06609)
Experiment: Competitive biochemical ELISA assay (biotinylated BRC4 peptide vs RAD51)
Details: read-out: EC50 (μM) on ELISA assay; competition with BRC4 for RAD51; triplicate, ± standard deviation; NA = not active; racemic mixtures unless enantiomer named
Description: To investigate the mechanism of action of the new dihydroquinolone pyrazoline derivatives, different biological assays were performed. As a primary screening, the ability of compounds 5d–57d to inhibit RAD51-BRCA2 interaction was investigated with a competitive biochemical ELISA assay against the parent compound 4d (Table 1). This assay is effective in evaluating the ability of new molecules to compete with BRC4 to bind to RAD51.[30] […] The activity was affected when the fluorine was replaced with chlorine (11d, EC50 = 59 ± 8 μM) and trifluoromethyl groups (16d, EC50 = 29 ± 2 μM). […] 18d–21d, 23d, 25d, 30d, and 31d were active at micromolar range, all very similar to the initial hit. […] The replacement of the aromatic ring A in combination with the substitution of the pyrazoline nitrogen with either propionyl or acetyl chain yielded compounds 33d–51d. […]
Competitive ELISA screening assay using biotinylated BRC4 peptide to disrupt the BRC4–RAD51 interaction was performed by modifying the method described by Rajendra et al.[33] […] Antibody raised against RAD51 (Millipore) and HRP-secondary antibody staining to develop the 3,3′,5,5′-tetramethylbenzidine signal (Sigma) quenched with 1 M HCl was used as the assay readout. Colorimetric measure was read on a Victor5 (PerkinElmer) plate reader. […] Results were analyzed by using GraphPad software.

SMILES | EC50 [µM]
O=C(O)CCC(=O)N1N=C(c2c(-c3ccccc3)c3cc(Cl)ccc3[nH]c2=O)CC1c1ccc(F)cc1 (single isomer, unassigned) [4d-II] | 10
O=C(O)CCC(=O)N1N=C(c2c(-c3ccccc3)c3cc(Cl)ccc3[nH]c2=O)CC1c1ccc(F)cc1 (single isomer, unassigned) [4d-I] | 4
